## Binding of CDR-mutated scFvs to a peptide of the spike HR2 region

Source: Li et al. 2023 (doi:10.1038/s41467-023-39022-2), MIT Lincoln Laboratory and A-Alpha Bio; data file from the FLAb repository.

Target: peptide PDVDLGDISGINAS, taken from heptad repeat 2 (HR2) of SARS-CoV-2 spike.

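This is the validation round: designs drawn from the data on random variants, tested in the same kind of assay. Several design methods are mixed in this list. AlphaSeq pools MATa yeast showing the antibodies with MATalpha yeast showing the peptide. The frequency of each diploid, read from paired DNA barcodes, reflects how well the two displayed proteins bind. Read counts were normalised to the haploid input and turned into Kd by a linear fit to BCL2-family pairs of known affinity, for each replicate. There are six technical replicates.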

Each scFv is VH, the linker GGGGSGGGGSGGGGS, VL, as in the parent Ab-14, and differs from it in the CDRs of the light chain only.
VH: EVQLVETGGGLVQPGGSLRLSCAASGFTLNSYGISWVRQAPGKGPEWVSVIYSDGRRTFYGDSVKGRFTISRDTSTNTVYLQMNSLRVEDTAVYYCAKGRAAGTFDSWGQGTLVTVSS
VL: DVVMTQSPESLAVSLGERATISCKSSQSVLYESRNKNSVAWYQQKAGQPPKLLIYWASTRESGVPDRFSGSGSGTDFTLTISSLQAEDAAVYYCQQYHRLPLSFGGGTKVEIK

Each variant is given by its three light chain CDRs, as the data file delimits them; those of the parent are KSSQSVLYESRNKNSVA, WASTRES, QQYHRLPLS. Numbers give log10(Kd / nM), so 0 is 1 nM and 3 is 1 µM. Smaller is tighter. A mean of the replicates is given; it leaves out those without a signal. Where no diploid with the target was found in any replicate, the entry reads "nd": below detection, most likely a poor binder, though not proof of it. Empty control strains, which show no peptide, gave a signal in 4% of pairings with all light chain designs; the median was 2.64 and 95% of these signals were weaker than 1.59. No background was subtracted. Also given: how often the same scFv was detected with the empty control strains. The authors' rule: three or more of the six replicates give a measured affinity, fewer mean a poor binder. Of ten entries with the parent sequence, four were seen in most replicates (averages 0.34 to 2.37), three in one and three in none, so single entries are noisy. The range of this assay differs from that of the first round, and the authors advise against merging the two.

| CDR-L1 | CDR-L2 | CDR-L3 | mean, log10 nM | seen in | empty controls |
|---|---|---|---|---|---|
| SITQLVAYGSRNKNSVA | QMSTRED | QQYDRLPLS | 0.55 | 5 of 6 | 0 of 18 |
| KLEQSDLYESRNKNSVA | NASTRLS | QQYHRLPLS | -0.14 | 6 of 6 | 0 of 18 |
| MISQLMNMGQFAINSVA | QASERSN | QQYDRLPLM | 2.42 | 4 of 6 | 0 of 18 |
| KSSQSGLHEHTNKNSVA | WASTRES | QQYHRLPLS | 0.91 | 5 of 6 | 0 of 18 |
| TISQVMNTLTRHGNNVA | DLQNRES | QQYFRLPLS | 0.39 | 6 of 6 | 0 of 18 |
| KVSQSVLYESRNKNSVA | RASTRES | QQYHRLPLS | 0.18 | 6 of 6 | 0 of 18 |
| TISQMTSLFSQTINNVA | EVSTREA | QQYDRLPLT | 0.67 | 6 of 6 | 1 of 18 |
| KISMSVTFESRNKNSVA | ENSTRES | QSYDRLPLS | 3.57 | 1 of 6 | 2 of 18 |
| SFPSEMDQQQTQVNSVA | GEQHTAR | QQYGRLPLS | 2.18 | 6 of 6 | 2 of 18 |
| KMSQSFLYESRNKNSVA | GASTRES | QNYHRLPLS | 0.08 | 6 of 6 | 0 of 18 |
| KSSQSDLYTSRNKNSVA | SASTREQ | QQYHILPLS | 0.10 | 6 of 6 | 1 of 18 |
| TITMFMDNLTQNRNNVA | DTSTLGK | QSYDRLPLS | 1.92 | 4 of 6 | 0 of 18 |
| MISQSFLIGSRMKNSVA | QTSTRES | QQYDRLPLS | 0.54 | 6 of 6 | 0 of 18 |
| KSSQSVLYESRNKNSVA | WASTREW | QQYSRLPLS | nd | 0 of 6 | 0 of 18 |
| KISQMYRYEQQNHSSIA | EANTREQ | QSYHRLPLS | 4.16 | 4 of 6 | 2 of 18 |
| KIGGVTNGISRSKNSVA | EQSTRED | QQYNRLPLS | 0.14 | 6 of 6 | 0 of 18 |
| TISQMTSLFSQSINNVA | EVSTREE | QQYDRLPLV | 0.74 | 6 of 6 | 2 of 18 |
| KLRQSTHIESFNKNNVA | EMTTREQ | QSYDRLPLS | 0.67 | 6 of 6 | 1 of 18 |
| SVRHPFQGENGMKASVA | NATIRDH | QQYFRLPLF | 0.16 | 6 of 6 | 2 of 18 |
| KSSQSVLYEDGNKNSVA | HASVRED | QQYHRLPLM | 1.56 | 5 of 6 | 0 of 18 |
| ALTAHRLVAIEQKNSIA | NAVMRYQ | QQYAQLPLM | 0.54 | 6 of 6 | 0 of 18 |
| MMSQVTGQGMRHRNNVA | QTSTREP | QQYDRLPLI | 0.77 | 6 of 6 | 3 of 18 |
| KLQQSVLYEGRNKNSVA | QASTRSD | QQYHRLPLS | -0.09 | 6 of 6 | 0 of 18 |
| KFFGGIPEQERDDYSIA | KGTLREM | QQYQRLPLS | 0.44 | 6 of 6 | 1 of 18 |
| KSQQSQLYESRNFNSVA | HASTRLD | QQYHRLPLS | 3.13 | 5 of 6 | 0 of 18 |
| QLLMATMQGTYNRNSVA | HAQMRND | QSYHRLPLS | 1.16 | 6 of 6 | 0 of 18 |
| KLSMSMLMESFHKNSVA | ENSTREE | QHYHRLPLS | 1.67 | 1 of 6 | 0 of 18 |
| KISFSVLDESSNKNSVA | WASTRES | QRYHRLPLS | 2.10 | 3 of 6 | 1 of 18 |
| KSSISYLYESPNKNSVA | EASTRES | QQYHRLPLS | 0.05 | 6 of 6 | 1 of 18 |
| KSSQSVLYENRNKNSVA | SASTRES | QQAHRLPLS | 0.93 | 6 of 6 | 1 of 18 |
| KSSLSVEYESRNKNQVA | AASTRES | QQYHRLPLS | 0.56 | 6 of 6 | 1 of 18 |
| KISQSYLYEDRNKWSVA | NASTRLS | QQYHRLPLS | 0.13 | 6 of 6 | 1 of 18 |
| KIYELGKGNIKTANNIA | QTDIRMS | QSYNRLPLS | 1.09 | 6 of 6 | 0 of 18 |
| KLSQSVMYESRNKNSVA | NASTREM | QQYHRLPLS | 0.35 | 6 of 6 | 0 of 18 |
| KLSQATRMESRNKASVA | ENSTRGE | QQYFRLPLS | -0.04 | 6 of 6 | 1 of 18 |
| KSSQSVGYESENNNSCA | WASTRES | QQYHRDPLS | nd | 0 of 6 | 0 of 18 |
| KSSQSVLYESRNKNSVA | EASTREV | QQYHRLELS | 1.01 | 6 of 6 | 1 of 18 |
| KLSQSVGYESRNKNNVA | EASTRES | QQYHRLPLS | 0.26 | 6 of 6 | 4 of 18 |
| QVAAIHEHSSDLNKAVA | EASTRDA | QQYERLPLS | 0.40 | 6 of 6 | 0 of 18 |
| KQSQSGPYEDRNFNSVA | HASTRIS | QQYHRLPLS | 0.34 | 6 of 6 | 1 of 18 |
| KLSQVTEYESRNKNNVA | DLSTRGS | QDYHRLPLS | -0.35 | 6 of 6 | 1 of 18 |
| YMDSGDVDGQKSKESIA | DADHSGA | QQYARLPLG | 1.41 | 6 of 6 | 0 of 18 |
| KQSQSVSYEWRNKNSVA | DASTRES | QQYHRLPLS | 0.48 | 6 of 6 | 3 of 18 |
| KSSQSVLYESRNKNSVA | WASTRES | QQYHKLPLS | 1.25 | 6 of 6 | 3 of 18 |
| HITYGMYVSGRHTSNIA | QAETRAK | QQYDRLPLM | 0.68 | 6 of 6 | 1 of 18 |
| SLNKHAWDFNQTWNSVA | DHSMRVT | QDYIRLPLT | nd | 0 of 6 | 1 of 18 |
| KLEQSWEYESRNKNSVA | NASQRES | QQYHRLPLS | 1.47 | 4 of 6 | 0 of 18 |
| KLAYQADMYGVQCNNVA | HADIREP | QQYFKLPLN | 1.44 | 6 of 6 | 2 of 18 |
| AEDHQEGSGKNSDANVA | QAEQRAP | QQYHHLPLM | 1.07 | 4 of 6 | 0 of 18 |
| KITATMRFEQKAKNNIA | EVTTRSK | QQYYRLPLS | 0.88 | 6 of 6 | 0 of 18 |
| KMSQSNDYEERNDNAVA | NASQREE | QQYHRLPLS | 0.11 | 6 of 6 | 0 of 18 |
| KLQQSELYESRNKNSVA | HASTRMS | QQYHRLPLS | -0.04 | 6 of 6 | 2 of 18 |
| KLHQSQLYESRNINSVA | NASQRCS | QQYHRLPLS | 0.17 | 6 of 6 | 1 of 18 |
| KLSQSNLYESRNKNSVA | NASTREV | QQYHRLPLS | -0.15 | 6 of 6 | 1 of 18 |
| KSVQSVLYESRNKNSVA | GASTRES | QQYHRLPLS | 0.42 | 6 of 6 | 0 of 18 |
| KLSFGVLYESRNKNSVA | GASTRES | QAYHRLPLS | 0.37 | 6 of 6 | 0 of 18 |
| QINVNRLMNYTMNNAIA | GKTLRVD | QQYAQLPLS | 1.30 | 6 of 6 | 0 of 18 |
| KSSQTVREESTNKNSVA | WASTREM | QQYHILPLS | 0.76 | 5 of 6 | 0 of 18 |
| KVVMSVNGLQRNKNSVA | QASTRES | QQYHRLPLS | 0.18 | 6 of 6 | 0 of 18 |
| KLQQWHLYESRMKNSVA | HASERES | QCYHRLPLS | 1.21 | 6 of 6 | 0 of 18 |
| KIERSTKGDAYFQYSIA | QGDIREK | QQYAQLPLT | 1.35 | 6 of 6 | 0 of 18 |
| KMSQTVLYEARNKNSVA | WASTRES | QQYHRLPLS | 1.41 | 6 of 6 | 1 of 18 |
| YMSGQIDGGWNQQEAIA | EVTYKED | QQYYHLPLS | 3.62 | 1 of 6 | 1 of 18 |
| KISQSVLQESRNKNSVA | WASTRES | QQYHRLPLS | 0.43 | 6 of 6 | 3 of 18 |
| KLSQSVDYESRNKNSVA | NASTRED | QQYHRLPLS | -0.25 | 6 of 6 | 1 of 18 |
| KVSQSVLYESRVKNSVA | NASTRES | QQYHRLPLS | -0.06 | 6 of 6 | 4 of 18 |
| KMSWSVLFESRNKNSVA | DASTRSS | QQYHRLPLS | -0.08 | 6 of 6 | 0 of 18 |
| KVSQSQLYESRNKNNVA | NASTRES | QQYHRLPLS | -0.46 | 6 of 6 | 2 of 18 |
| KLQQSEQYESRNKNSVA | NASTRES | QQYHRLPLS | 0.24 | 6 of 6 | 0 of 18 |
| KSSQSVLMESRNSNSVA | DASTRES | QQYHRLPLS | 0.08 | 6 of 6 | 0 of 18 |
| KSSQSVLYESRNKNSVA | WANTRES | QHYHRLPLS | nd | 0 of 6 | 0 of 18 |
| KSSQVYEYESRNKNSVA | GASTRES | QQYHRLPLS | 0.15 | 6 of 6 | 1 of 18 |
| KSSPSELYEDRLFNSVA | HASQRES | QQYHRLPLS | 1.00 | 6 of 6 | 0 of 18 |
| LISQSSLYEQRNKNSVA | DASQRLS | QQYHRLPLS | 0.02 | 6 of 6 | 1 of 18 |
| KYSPSYLYESRNKNSVA | QASTRES | QQYHLLPLS | 0.00 | 6 of 6 | 0 of 18 |
| NIVGRVEDKQTETANIA | DAECRAG | QQYSRLPLS | 0.53 | 6 of 6 | 0 of 18 |

A selection of 9 entries from above:

CDR-L1,CDR-L2,CDR-L3,"mean, log10 nM",seen in,empty controls
KSSQSVLYENRNKNSVA,SASTRES,QQAHRLPLS,0.93,6 of 6,1 of 18
KIERSTKGDAYFQYSIA,QGDIREK,QQYAQLPLT,1.35,6 of 6,0 of 18
KSSQTVREESTNKNSVA,WASTREM,QQYHILPLS,0.76,5 of 6,0 of 18
KVSQSQLYESRNKNNVA,NASTRES,QQYHRLPLS,-0.46,6 of 6,2 of 18
MISQLMNMGQFAINSVA,QASERSN,QQYDRLPLM,2.42,4 of 6,0 of 18
KVSQSVLYESRNKNSVA,RASTRES,QQYHRLPLS,0.18,6 of 6,0 of 18
QINVNRLMNYTMNNAIA,GKTLRVD,QQYAQLPLS,1.30,6 of 6,0 of 18
TISQMTSLFSQTINNVA,EVSTREA,QQYDRLPLT,0.67,6 of 6,1 of 18
HITYGMYVSGRHTSNIA,QAETRAK,QQYDRLPLM,0.68,6 of 6,1 of 18